These results are taken from patent US20210128561A1, “MRGX Receptor Antagonists” (Rheinische-Friedrich-Wilhelms-Universität Bonn, priority 2019, published 2021).

Sequences of proteins named here, by UniProt entry; tags and fusion partners are left off.
UniProt Q96LA9, whole entry L83S: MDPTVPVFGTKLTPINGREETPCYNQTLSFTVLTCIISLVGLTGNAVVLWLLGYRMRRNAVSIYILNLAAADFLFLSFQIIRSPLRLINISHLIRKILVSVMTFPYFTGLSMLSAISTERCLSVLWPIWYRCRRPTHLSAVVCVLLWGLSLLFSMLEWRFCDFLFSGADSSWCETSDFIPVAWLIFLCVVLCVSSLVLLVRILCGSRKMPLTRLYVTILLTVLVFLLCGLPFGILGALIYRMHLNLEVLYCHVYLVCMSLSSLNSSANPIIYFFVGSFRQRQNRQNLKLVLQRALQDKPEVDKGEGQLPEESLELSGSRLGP

This experiment addresses human MrgX4 L83S (Homo sapiens, UniProt Q96LA9, L83S). Put plainly: β-arrestin assay (CHO β-arrestin human MrgX4 L83S). It counts as cell-based.

Each structure is given as a SMILES string.

On to `CCc1c(C(C)(C)O)[nH]c2nc3cc(F)ccc3n2c1=O`, for which the IC50 turned out to be 58.2 nM.

One may read the IC50 as the concentration that inhibits the measured activity by half. Higher therefore signals lower potency.
